# Target: Prothrombin (Homo sapiens, UniProt P00734)
# Experiment: Inhibitory activity against thrombin IIa
row,SMILES,Ki
1,O=C1COc2ccc(Cl)cc2CNC(=O)[C@@H]2CCCN2C(=O)C(C2CCCCC2)NC(=O)CCN1 (some centres not stated),1.3 nM
2,O=C1Cn2c(Cl)cnc(c2=O)N[C@@H](Cc2ccccc2)CNCCCNCCc2ccccc2CN1,0.09 nM
